The target of the assay is T1, butyrylcholinesterase (Homo sapiens, UniProt P06276).
T1 construct: purchased Sigma-Aldrich
Kind of assay: Butyrylcholinesterase inhibitory activity by HPLC-DAD (Ellman reaction product TNBA). The settings on record: alkaloid standards, 0.2 U/mL enzyme, 15 min at 37 °C. The class given is biochemical. How it is done: For determination of butyrylcholinesterase inhibitory activity of alkaloid standards and plant extracts by HPLC analysis was performed on the same apparatus, column and mobile phase as determination of acetylcholinesterase inhibitory activity.
Samples for determination of butyrylcholinesterase inhibitory activity were prepared by addition of 50 µL of butyrylthiocholine iodide, 50 µL of 5′-dithiobis-(2-nitrobenzoic acid), 50 µL of butyrylcholinesterase at concentration 2 U/mL and phosphate buffer at pH 7.8 to obtaining 500 µL of final solution. […] All components were mixed and samples were incubated for 15 min at 37 °C. Samples were filtrated by syringe filter (CHROMAFIL Xtra, PVDF-29/25 0.20 µm) and injected into HPLC system. […] All experiments were performed in triplicates.

Amino acid sequences for entries named in this document (tags omitted). Residues count along the entry.
UniProt P06276, 29-602: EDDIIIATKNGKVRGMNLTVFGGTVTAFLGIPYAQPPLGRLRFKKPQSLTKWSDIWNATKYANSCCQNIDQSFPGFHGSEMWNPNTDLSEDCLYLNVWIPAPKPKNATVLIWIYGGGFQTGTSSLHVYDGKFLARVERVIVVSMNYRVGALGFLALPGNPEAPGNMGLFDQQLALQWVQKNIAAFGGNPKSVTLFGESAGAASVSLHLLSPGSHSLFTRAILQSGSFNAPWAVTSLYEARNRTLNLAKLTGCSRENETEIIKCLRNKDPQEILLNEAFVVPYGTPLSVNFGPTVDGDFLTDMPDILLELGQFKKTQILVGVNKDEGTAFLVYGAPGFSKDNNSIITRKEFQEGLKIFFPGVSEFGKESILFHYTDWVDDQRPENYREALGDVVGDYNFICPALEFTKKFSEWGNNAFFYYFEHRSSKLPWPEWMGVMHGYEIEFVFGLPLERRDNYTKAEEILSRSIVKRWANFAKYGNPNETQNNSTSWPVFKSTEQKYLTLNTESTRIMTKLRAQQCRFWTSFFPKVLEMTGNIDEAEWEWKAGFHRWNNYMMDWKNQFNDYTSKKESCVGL

Structures are written as SMILES. Like-named read-outs stand apart in the source and are kept apart here.

For the compound `CCN(C)C(=O)Oc1cccc([C@H](C)N(C)C)c1` [Rivastigmine, rivastigmine], the IC50 was 8.38 ± 0.63 µM (pH 7.8, read-out: IC50 values Butyrylcholinesterae) and 8.39 µM (pH 7.8, read-out: IC50 values Butyrylcholinesterae (μg/mL) (converted)).

Source of the values: article PMC9182188, “Isoquinoline Alkaloid Contents in Macleaya cordata Extracts and Their Acetylcholinesterase and Butyrylcholinesterase Inhibition” (Molecules, 2022).
